The results in this text go back to article PMC8367020 (Journal of the American Chemical Society, 2021).

Amino acid sequences for entries named in this document (tags omitted). Residues count along the entry.
UniProt P80147, 29-500: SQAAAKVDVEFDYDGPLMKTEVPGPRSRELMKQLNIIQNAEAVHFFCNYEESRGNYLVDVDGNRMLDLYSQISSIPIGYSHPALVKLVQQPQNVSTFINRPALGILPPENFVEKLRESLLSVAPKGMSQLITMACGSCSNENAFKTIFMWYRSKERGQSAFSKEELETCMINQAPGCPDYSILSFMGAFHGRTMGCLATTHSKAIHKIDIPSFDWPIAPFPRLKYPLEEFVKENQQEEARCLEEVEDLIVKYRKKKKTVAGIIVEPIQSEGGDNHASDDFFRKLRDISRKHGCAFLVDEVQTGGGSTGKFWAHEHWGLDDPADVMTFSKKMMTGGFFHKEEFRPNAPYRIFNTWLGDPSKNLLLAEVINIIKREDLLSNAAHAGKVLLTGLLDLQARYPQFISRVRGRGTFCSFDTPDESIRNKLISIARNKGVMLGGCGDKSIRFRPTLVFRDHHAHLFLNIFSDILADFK

As usually defined, the Ki is a measure of affinity in units of concentration, obtained from inhibition or displacement. A low value points to a stronger hold on the target.

This assay concerns the target GABA-AT (Sus scrofa, UniProt P80147). Briefly: Reversible inhibition of GABA-AT. In kind it is biochemical.

Regarding `N[C@H]1C=C(C(=O)O)CC1(F)F` [Compound 6, (S)-3-amino-4,4-difluorocyclopent-1-enecarboxylic acid], the “inhibitory activity toward GABA-AT weaker than that of 4” value (Ki relative to cyclopentane 4) is given as “about 10 times”. This compound also returned a Ki (Ki, GABA-AT reversible inhibition, Ki = IC50/(1+[S]/Km)) of 1.1 ± 0.1 mM.
